Data as given in US9868748B2, “Thiazolopyrrolidine inhibitors of ROR- γ” (Vitae Pharmaceuticals, Inc., priority 2013, dated 2018).

Sequences of proteins named here, by UniProt entry; tags and fusion partners are left off. A line that says so, or that is headed by a name, gives the form on record, which may keep a tag or linker. Residues count along the entry.
UniProt P51449, 269-508 limits assumed: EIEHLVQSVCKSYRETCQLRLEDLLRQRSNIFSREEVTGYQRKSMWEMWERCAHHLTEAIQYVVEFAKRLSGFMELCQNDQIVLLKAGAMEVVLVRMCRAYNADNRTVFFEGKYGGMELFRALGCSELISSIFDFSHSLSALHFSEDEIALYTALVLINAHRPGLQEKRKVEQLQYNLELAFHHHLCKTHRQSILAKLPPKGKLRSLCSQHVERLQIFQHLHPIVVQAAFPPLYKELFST
UniProt P51449, 25-518 with tags or gaps limits assumed: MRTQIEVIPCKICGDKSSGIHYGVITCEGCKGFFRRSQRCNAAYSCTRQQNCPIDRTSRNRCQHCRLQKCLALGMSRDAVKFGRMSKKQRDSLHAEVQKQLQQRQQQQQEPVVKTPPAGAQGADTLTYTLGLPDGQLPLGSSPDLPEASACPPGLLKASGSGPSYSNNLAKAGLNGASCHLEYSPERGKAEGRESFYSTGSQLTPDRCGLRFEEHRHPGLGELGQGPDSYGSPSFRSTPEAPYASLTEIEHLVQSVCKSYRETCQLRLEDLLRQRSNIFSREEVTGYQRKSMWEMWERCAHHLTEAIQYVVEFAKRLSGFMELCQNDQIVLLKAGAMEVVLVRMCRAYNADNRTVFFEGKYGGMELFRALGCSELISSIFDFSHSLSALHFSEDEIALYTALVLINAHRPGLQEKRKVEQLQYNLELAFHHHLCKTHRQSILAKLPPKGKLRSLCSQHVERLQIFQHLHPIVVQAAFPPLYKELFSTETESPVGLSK

What was measured:
[1] = biological target: full-length RORγt in Jurkat cells (Homo sapiens (Human), UniProt P51449); test: RORγt 5xRORE Assay in Jurkat Cells (Assay 2)
[2] = biological target: recombinant RORγ Ligand Binding Domain (LBD) protein (Homo sapiens (Human), UniProt P51449); test: Radio-Ligand RORγ Binding Assay (Assay 1); conditions: read-out: RORγ Binding Ki Range*, competition with 25-hydroxy [26,27-3H]-cholesterol, SPA
[3] = read-out: RORγt5X IC50 Range*, Nanoluc luciferase reporter, 16-18 hrs, Table 8

IC50 [1, 3]	Ki ([2]; Table 8)	Ki ([2]; Table 9)	IC50 ([1]; read-out: RORγt5X IC50 Range*, Nanoluc luciferase reporter, 16-18 hrs, Table 9)	SMILES
< 100 nM				CCS(=O)(=O)c1ccc(CC(=O)Nc2nc3c(s2)CN(Cc2ccc(Cl)cc2)[C@H]3C(C)C)cc1
< 100 nM	< 100 nM			CCS(=O)(=O)c1ccc(CC(=O)Nc2nc3c(s2)CN(Cc2ccc(C(F)(F)F)c(Cl)c2)[C@H]3C(C)C)nc1
< 100 nM	< 100 nM			Cc1cc(CN2Cc3sc(NC(=O)Cc4ccc(S(C)(=O)=O)cc4)nc3[C@@H]2C(C)C)ncc1Cl
		100 to 1000 nM		CC(C)[C@H]1c2nc(NC(=O)CN3CCC(S(C)(=O)=O)CC3)sc2CN1Cc1ccc(Cl)cc1
		< 100 nM	< 100 nM	C=C(C(=O)Nc1nc2c(s1)CN(Cc1ccc(OC(F)F)cc1)[C@H]2C(C)C)c1ccc(S(=O)(=O)CC)cc1
< 100 nM	< 100 nM			CCS(=O)(=O)c1ccc(CC(=O)Nc2nc3c(s2)CN(Cc2ccc(OC(F)(F)F)cc2Cl)[C@H]3C(C)C)nc1

Like-named read-outs stand apart in the source and are kept apart here.
